The text below walks through data of patent US20180194762A1 (Pharmacyclics LLC, priority 2017, published 2018).

Amino acid sequences for entries named in this document (tags omitted).
UniProt P42680, whole entry: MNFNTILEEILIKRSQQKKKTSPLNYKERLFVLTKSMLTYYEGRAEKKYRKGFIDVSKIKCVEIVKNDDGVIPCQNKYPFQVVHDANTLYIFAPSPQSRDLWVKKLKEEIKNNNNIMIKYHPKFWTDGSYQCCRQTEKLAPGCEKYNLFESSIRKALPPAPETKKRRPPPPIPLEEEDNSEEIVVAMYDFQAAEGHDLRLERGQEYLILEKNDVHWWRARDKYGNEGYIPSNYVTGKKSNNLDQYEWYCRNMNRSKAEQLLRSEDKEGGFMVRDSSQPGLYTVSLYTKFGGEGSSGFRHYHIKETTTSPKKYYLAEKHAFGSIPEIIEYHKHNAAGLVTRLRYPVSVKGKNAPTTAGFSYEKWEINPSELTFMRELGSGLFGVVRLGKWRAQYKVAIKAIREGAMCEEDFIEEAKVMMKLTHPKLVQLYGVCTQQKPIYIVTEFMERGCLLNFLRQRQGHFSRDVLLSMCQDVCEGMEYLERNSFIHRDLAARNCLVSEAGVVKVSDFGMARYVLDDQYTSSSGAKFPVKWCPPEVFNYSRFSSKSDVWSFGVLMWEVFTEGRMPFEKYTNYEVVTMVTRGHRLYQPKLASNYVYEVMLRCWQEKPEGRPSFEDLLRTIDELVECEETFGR
UniProt Q06187, whole entry: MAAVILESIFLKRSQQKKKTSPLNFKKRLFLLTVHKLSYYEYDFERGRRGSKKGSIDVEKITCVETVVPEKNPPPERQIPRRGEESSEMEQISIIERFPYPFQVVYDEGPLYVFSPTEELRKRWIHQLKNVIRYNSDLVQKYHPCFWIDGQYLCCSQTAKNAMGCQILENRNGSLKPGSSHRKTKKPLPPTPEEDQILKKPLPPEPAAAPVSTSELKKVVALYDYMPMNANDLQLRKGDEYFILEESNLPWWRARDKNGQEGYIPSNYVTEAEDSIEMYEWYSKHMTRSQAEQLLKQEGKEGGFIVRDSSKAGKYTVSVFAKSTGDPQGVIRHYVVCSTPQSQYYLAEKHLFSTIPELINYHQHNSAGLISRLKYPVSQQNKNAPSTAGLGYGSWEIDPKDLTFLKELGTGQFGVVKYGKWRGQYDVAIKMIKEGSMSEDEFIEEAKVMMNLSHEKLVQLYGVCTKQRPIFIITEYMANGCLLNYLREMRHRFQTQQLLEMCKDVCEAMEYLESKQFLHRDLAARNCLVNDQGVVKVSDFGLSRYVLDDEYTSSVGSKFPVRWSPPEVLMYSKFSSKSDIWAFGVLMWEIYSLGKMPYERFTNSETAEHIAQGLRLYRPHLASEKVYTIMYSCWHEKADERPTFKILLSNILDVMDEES
UniProt P51813, whole entry: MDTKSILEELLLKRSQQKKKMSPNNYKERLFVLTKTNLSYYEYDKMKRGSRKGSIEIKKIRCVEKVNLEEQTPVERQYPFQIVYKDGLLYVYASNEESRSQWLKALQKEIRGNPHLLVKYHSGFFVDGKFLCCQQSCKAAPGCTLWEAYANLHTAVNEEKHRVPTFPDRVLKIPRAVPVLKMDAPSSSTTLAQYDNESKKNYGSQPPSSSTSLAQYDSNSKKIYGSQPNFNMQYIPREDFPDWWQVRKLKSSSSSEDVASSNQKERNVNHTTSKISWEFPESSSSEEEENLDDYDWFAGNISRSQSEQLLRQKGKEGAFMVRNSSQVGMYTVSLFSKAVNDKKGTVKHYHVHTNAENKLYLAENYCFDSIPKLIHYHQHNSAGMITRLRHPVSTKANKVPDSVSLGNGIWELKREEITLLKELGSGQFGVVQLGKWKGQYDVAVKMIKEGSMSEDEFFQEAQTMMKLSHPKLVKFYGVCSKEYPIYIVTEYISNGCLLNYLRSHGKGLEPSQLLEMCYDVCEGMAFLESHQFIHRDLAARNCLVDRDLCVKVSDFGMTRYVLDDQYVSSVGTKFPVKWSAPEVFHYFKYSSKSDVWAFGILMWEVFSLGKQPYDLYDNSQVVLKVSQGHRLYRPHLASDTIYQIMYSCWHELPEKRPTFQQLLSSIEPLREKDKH

What all share (assay type): biochemical
For one test, the target named is TEC (Homo sapiens, UniProt P42680). Briefly: Inhibition of a panel of kinases (in vitro HotSpot kinase assay, 33P-ATP, 1 μM ATP). As for the experimental part:
(§1) Example 63: Inhibition of a Panel of Kinases The degree of inhibition of a panel of kinases is determined using the in vitro HotSpot kinase assay (purified enzymes, ^33P-ATP, an appropriate substrate and 1 μM ATP).

Another test concerns the target Btk (Homo sapiens, UniProt Q06187). The test can be described thus: Btk in vitro inhibitory activity (one of Method A TR-FRET, Method B electrophoretic mobility shift, Method C radiometric filter binding). The conditions noted are these: read-out: Btk-WT IC50; wild-type Btk. Here is the method: Example 62a: Btk In Vitro Inhibitory Activity (Method A)
Btk kinase activity is determined using a time-resolved fluorescence resonance energy transfer (TR-FRET) methodology. Measurements are performed in a reaction volume of 50 μL using 96-well assay plates. Kinase enzyme, inhibitor, ATP (at the Km for the kinase), and 1 μM peptide substrate (Biotin-AVLESEEELYSSARQ-NH2) are incubated in a reaction buffer composed of 20 mM Tris, 50 mM NaCl, MgCl2 (5-25 mM depending on the kinase), MnCl2 (0-10 mM), 1 mM DTT, 0.1 mM EDTA, 0.01% bovine serum albumin, 0.005% Tween-20, and 10% DMSO at pH 7.4 for one hour. […] The TR-FRET signal is measured on a multimode plate reader with an excitation wavelength (λEx) of 330 nm and detection wavelengths (λEm) of 615 and 665 nm. Activity is determined by the ratio of the fluorescence at 665 nm to that at 615 nm. For each compound, enzyme activity is measured at various concentrations of compound. Negative control reactions are performed in the absence of inhibitor in replicates of six, and two no-enzyme controls are used to determine baseline fluorescence levels. […]
Kinase activity is measured in vitro using electrophoretic mobility shift assay. […] The terminated reactions are analyzed using a 12 channel LabChip® 3000 microfluidic detection instrument (Caliper Life Sciences). […] As substrate and product peptides are separated, two peaks of fluorescence are observed. […]
In general terms: A gel shift assay detects complexes by their altered migration in electrophoresis.

The next test deals with panel of kinases (Homo sapiens, UniProt P51813). Briefly: Inhibition of a panel of kinases (in vitro HotSpot kinase assay, 33P-ATP, 1 μM ATP), other kinases. The conditions noted are these: read-out: BMX-WT IC50, BMX wild-type. As for the experimental part: as §1

pIC50: −log10 of the molar value.

One may read the pIC50 as −log10 of the IC50, conventionally taken in molar units. With `C[C@@H](NC(=O)c1noc(C(C)(C)C)n1)c1ccc(-c2ccnc3[nH]nc(N[C@@H]4CCN(C(=O)N(C)C)C4)c23)cc1`, the TEC/Btk on TEC (ratio of TEC IC50 to Btk IC50 (selectivity)) is recorded as 292. Also, the pIC50 is 5.00 on TEC (read-out: TEC IC50, HotSpot kinase assay, 1 μM ATP); 7.47 at Btk; 5.04 on panel of kinases.
